Literature values in patent US4791112A, “N-heterocyclic-N-(4-piperidyl)amides and pharmaceutical compositions and methods employing such compounds” (The BOC Group, Inc., priority 1987, dated 1988).

Test system: opioid receptors

C=CCN1CC[C@]23c4c5ccc(O)c4O[C@H]2C(=O)CC[C@@]3(O)[C@H]1C5 [naloxone]
side effects (following intravenous administration): ventricular dysrhythmia, hypertension and pulmonary oedema
antagonism of analgesic component of opioids (in vivo): tends to also reverse or antagonize the analgesic component of opioids
